Test results as given in ChEMBL document CHEMBL5614429, “Development of Tailless Homologue Receptor (TLX) Agonist Chemical Tools” (J Med Chem, 2024).
Active and inactive are the calls of the source. The calls are words filed in the database; no cut-off is given here.

Target: T1, Nuclear receptor ROR-alpha (Homo sapiens) (UniProt P35398)
T1 sequence (whole entry): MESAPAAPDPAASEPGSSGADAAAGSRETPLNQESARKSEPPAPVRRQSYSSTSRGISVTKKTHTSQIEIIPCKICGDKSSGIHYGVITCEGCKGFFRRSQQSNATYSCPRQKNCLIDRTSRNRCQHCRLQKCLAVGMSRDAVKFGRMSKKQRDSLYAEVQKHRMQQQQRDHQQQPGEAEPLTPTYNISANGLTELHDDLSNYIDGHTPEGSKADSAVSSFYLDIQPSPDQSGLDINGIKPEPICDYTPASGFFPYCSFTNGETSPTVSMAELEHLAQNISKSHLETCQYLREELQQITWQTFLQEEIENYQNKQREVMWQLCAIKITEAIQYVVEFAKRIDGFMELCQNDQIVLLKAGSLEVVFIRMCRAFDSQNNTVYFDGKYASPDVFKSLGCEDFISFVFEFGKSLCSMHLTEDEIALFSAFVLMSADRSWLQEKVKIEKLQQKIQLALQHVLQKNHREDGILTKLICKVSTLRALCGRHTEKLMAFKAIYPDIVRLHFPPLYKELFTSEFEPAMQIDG
Type: cell-based
Details: HEK293T, dose 3.0 µM

Q: For `Cc1cc(-c2cc(NC(=O)Cc3ccccc3Cl)cc(C(F)(F)F)c2)ccn1`, which inhibition is on record?
A: Active
